System: T47D breast cancer cell line
Test: Sulforhodamine B viability, isobologram and combination index in T47D cells (Examples 4-5)
Method: For assessment of combined BTZ and cilengitide toxicity, T47D cells were seeded at a density of 7500 cells/cm^2 in 96-well cell culture plates and incubated for 24 hours. Cilengitide was diluted to 20 μM in complete DMEM, then 3 serial tenfold dilutions of this were performed in complete DMEM (2 μM, 200 nM and 20 nM). Complete DMEM containing no cilengitide was provided for negative controls.
These dilutions (or DMSO for wells containing no BTZ) were added to aliquots of complete DMEM containing 0-20 μM cilengitide for a 1/150 dilution. Aliquots (0.1 mL) of each mixture were added to wells already containing 0.1 mL medium (in duplicate), resulting in a matrix of cilengitide (10 nM-10 μM) and/or BTZ (1 nM-10 μM) or neither agent (diluent only).
OD570nm readings were divided by those resulting from negative control (diluent only) wells and expressed as a percentage. Three independent replicates of this experiment were carried out.
The isoboles were obtained similarly by extrapolation of points representing 50% reduction in viability from line graphs of % viability versus concentration of one agent at variable concentration with the other agent supplied at a fixed concentration. […]

CC(C)C[C@H](NC(=O)[C@H](Cc1ccccc1)NC(=O)c1cnccn1)B(O)O [Bortezomib]
viability at 0.01 µM (Homo sapiens, 24 h, read-out: viability compared with the untreated controls): 80%
CI (combination index) (single agent at its IC50): 1.00
